Assay results taken from patent US20210122824A1.

Biological target: human CTLA4 expressed on HEK293F cells (human) (UniProt P16410)
Assay: flow cytometry, HEK293F cells transiently expressing the target, 100 nM antibody, PE anti-human Fc; Mean (PE-A against FITC-A, GFP surrogate)

“reference antibody YW243.55.S70 (from U.S. Pat. No. 8,217,149 B2)” showed a Mean of 7310.
